Legend:
Format in all cases: cell-based
MC4R [1] = target: T1, MC4R (Homo sapiens, UniProt P32245); assay: cAMP assay (human receptors), DiscoverX HitHunter, MC4R; conditions: HEK293
T1 construct: host or cells: HEK293 (cAMP Hunter and PathHunter MC4R cell lines)

The chains behind the UniProt entries cited, without tags or fusion partners.
UniProt P32245, whole entry: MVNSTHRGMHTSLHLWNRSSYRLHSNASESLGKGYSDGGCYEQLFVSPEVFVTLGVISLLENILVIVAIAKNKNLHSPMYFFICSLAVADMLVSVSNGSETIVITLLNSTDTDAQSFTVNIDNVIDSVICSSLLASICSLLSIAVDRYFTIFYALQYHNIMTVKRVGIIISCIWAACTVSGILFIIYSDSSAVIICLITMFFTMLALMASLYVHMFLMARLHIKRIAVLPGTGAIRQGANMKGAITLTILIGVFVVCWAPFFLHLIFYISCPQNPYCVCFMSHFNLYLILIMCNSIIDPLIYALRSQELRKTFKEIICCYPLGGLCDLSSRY

MC4R [2] = target: T1, MC4R; assay: Bias calculation MC4R B-arrestin v MC4R cAMP; conditions: Table 5
MC4R [3] = target: T1, MC4R; assay: B-arrestin assay (human receptors), DiscoverX PathHunter, MC4R; conditions: read-out: MC4R Barr EC50
Protocol: Compound activity was analyzed using CBIS data analysis suite (ChemInnovation, CA).

What does the source list for a-MSH?
EC50 (MC4R [1]): 0.0337 µM; Bias: MC4R B-arrestin v MC4R cAMP (Larger numbers indicate bias towards B-arrestin) (MC4R [2]): 0.39; EC50 (MC4R [3]): 0.086 µM

From patent US20250361273A1, “METHODS AND COMPOSITIONS” (priority 2024, published 2025)
